Experimental data taken from ChEMBL document CHEMBL1140408 (J Med Chem, 2005).

Protein sequences, listed by entry. Tags and fused reporters are not part of them.
UniProt O35433, whole entry: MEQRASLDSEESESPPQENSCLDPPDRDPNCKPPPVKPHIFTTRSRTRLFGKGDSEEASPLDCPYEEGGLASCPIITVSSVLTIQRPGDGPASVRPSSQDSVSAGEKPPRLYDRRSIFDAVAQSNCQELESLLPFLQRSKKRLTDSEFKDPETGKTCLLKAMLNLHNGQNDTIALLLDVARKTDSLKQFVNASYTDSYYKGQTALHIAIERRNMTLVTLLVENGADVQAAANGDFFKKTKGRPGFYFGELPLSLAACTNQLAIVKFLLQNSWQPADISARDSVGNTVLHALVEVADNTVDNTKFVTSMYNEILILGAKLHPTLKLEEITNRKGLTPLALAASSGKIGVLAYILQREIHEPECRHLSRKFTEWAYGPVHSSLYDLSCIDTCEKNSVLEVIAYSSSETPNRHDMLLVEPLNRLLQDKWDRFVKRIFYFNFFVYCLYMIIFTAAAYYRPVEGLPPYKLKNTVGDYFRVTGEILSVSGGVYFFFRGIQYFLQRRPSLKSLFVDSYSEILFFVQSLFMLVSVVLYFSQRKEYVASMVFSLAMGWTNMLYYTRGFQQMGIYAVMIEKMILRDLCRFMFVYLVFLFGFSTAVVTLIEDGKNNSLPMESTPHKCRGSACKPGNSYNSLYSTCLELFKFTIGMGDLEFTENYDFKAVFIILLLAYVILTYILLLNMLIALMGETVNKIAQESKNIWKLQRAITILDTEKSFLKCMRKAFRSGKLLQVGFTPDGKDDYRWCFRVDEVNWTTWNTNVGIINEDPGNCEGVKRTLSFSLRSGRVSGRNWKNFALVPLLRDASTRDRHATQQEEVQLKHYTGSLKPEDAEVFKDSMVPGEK

Columns and labels:
[1] = molecular target: Transient receptor potential cation channel subfamily V member 1 (Rattus norvegicus) (UniProt O35433); details: 10 uM
[2] = molecular target: Transient receptor potential cation channel subfamily V member 1 (Rattus norvegicus) (UniProt O35433); details: 30 uM
[3] = molecular target: Transient receptor potential cation channel subfamily V member 1 (Rattus norvegicus, UniProt O35433); experiment: Inhibitory effect on capsaicin (0.5 uM)-induced calcium uptake in rat DRG neurons upon incubation at RT for 10 minutes
Procedure, shortened: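 Neonatal Sprague–Dawley rat DRG neurons, dissociated with collagenase/trypsin and cultured 3 days with 200 ng/mL NGF (cytosine arabinoside for the first 2 days), were washed in Ca/Mg-free HBSS with 10 mM HEPES at pH 7.4. They were then given 45Ca2+ (10 µCi/mL), 0.5 µM capsaicin and compound for 10 min at room temperature, SDS-lysed and scintillation-counted.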

Agonistic activity [1] [%] | Compound | further results
72 | COC(=O)Nc1ccc(C/N=C(\S)NCc2ccc(C(C)(C)C)cc2)cc1F | –
– | CC(C)(C)c1ccc(C/N=C(\S)NCc2ccc(NCC(=O)O)c(F)c2)cc1 | Agonistic activity [2]: 19%
– | CC(=O)Nc1ccc(C/N=C(\S)NCc2ccc(C(C)(C)C)cc2)cc1F | IC50 [3]: 1.5 µM
36 | CC(C)(C)c1ccc(C/N=C(\S)NCc2ccc(N)c(F)c2)cc1 | –
28 | CC(C)(C)c1ccccc1C/N=C(\S)NCc1ccc(NS(C)(=O)=O)c(F)c1 | –
